ERp5 inh: inhibitors of human ERp5; 350,000 compounds, 0.05% hits; AID 651711; Q15084; inhibition, % at 9.99 µM; ERp5 insulin aggregation, absorbance 650 nm, 90 min;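 active = mean replicate inhibition above about 25%, with every replicate also reaching it, limit read from the data, passing the limit was not always enough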
PDI turbidity: inhibitors of human protein disulfide isomerase; P07237; PDI insulin aggregation turbidity, A650, 90 min; inhibition, % at 10 µM; 350,000 compounds, 0.052% hits;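 active = mean inhibition across replicates of 30% or more, whatever share of single replicates reach that level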
FGF22 binding: shifts melting point of recombinant human FGF22; Q9HCT0; recombinant FGF22 thermal shift, SYPRO orange fluorescence; percent of sucrose octasulfate shift, DMSO zero; activity (Tm shift, normalised), % at 9.99 µM; 340,000 compounds, 1.5% hits; AID 651658;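 active = mean Tm shift, scaled 0 neutral to 100 positive control, at about 1.3% or above, every replicate too, limit read from the data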
Yeast UUG start-1: modulators of start codon recognition fidelity in yeast; S. cerevisiae UUG-firefly luciferase reporter, luminescence/redox ratio; AID 602363; 350,000 tested, 0.13% active; activity score, % at 18.7 µM;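 active = replicate mean at a twofold rise or more, about +100% in these data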;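 also: firefly luciferase made from a UUG start codon reports start codon fidelity; reporter light over untreated wells divided by growth signal over untreated wells; some hits fall short of that in this replicate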
SIRT5 block: blocks human SIRT5 desuccinylation of peptide; Q9NXA8; Purified SirT5, succinyl-peptide AMC, trypsin-coupled fluorescence; inhibition, % at 15 µM; 330,000 compounds, 1.1% hits; AID 652115; in the data active = inhibition above about 15%
S100A4 inh HTS: S100A4-myosin IIA interaction inhibition; P26447; S100A4/TAMRA-MyoIIA peptide fluorescence polarization; inhibition, % at 10.7 µM; 360,000 compounds, 0.14% hits; AID 652163;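 active = mean inhibition of at least 70% across replicates, with every replicate also reaching that level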
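Test system: S100A4 monomer protein; Medium: HEPES pH 7.2 with CaCl2, KCl, NaCl, DTT, Triton; Probe or stimulus: TAMRA-labelled myosin IIA heavy-chain peptide probe, 5 nM; Doses: one dose per compound; Times: polarization read 5 min after assay mix addition, stable 5–60 min; Benchmarks: neutral control DMSO, positive control TFP.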
Yeast UUG start-2: yeast start codon fidelity modulation | shares compounds with Yeast UUG start-1 | S. cerevisiae UUG-start firefly luciferase, luminescence, 4 h; 100% means double the DMSO signal | activation, % at 38 µM | 540 tested, under 10 active;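 active = signal increase whose fitted curve reaches an absolute level of 40 at a concentration under 10 µM; inactive = activity opposite to the expected increase, or the rest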
The depositor's hits bear a star. Compounds with a hit are over-represented: about 2.2% of the library has one in this group of screens.

For COc1cc(CC(=O)OCC(=O)Nc2ccc(S(=O)(=O)N3CCCC3)cc2)cc(OC)c1OC the results were PDI turbidity -3.1, Yeast UUG start-1 651.6* and Yeast UUG start-2 3.1.
COc1ccc(CC(=O)Nc2ccc(S(=O)(=O)N3CCCC3)cc2)cc1OC was read as ERp5 inh 0.1, PDI turbidity 14.3, FGF22 binding -0.1, Yeast UUG start-1 -8.9, SIRT5 block -5.6 and S100A4 inh HTS -2.9.
`O=C(COC(=O)Cc1ccc2c(c1)OCCO2)Nc1ccc(S(=O)(=O)N2CCCC2)cc1` gave PDI turbidity -4.8, Yeast UUG start-1 -5.2 and Yeast UUG start-2 0.5.
`CN(C)CC(=O)Nc1ccc2c(c1)[C@@H]1C[C@@H](CC(=O)NCc3cccc(F)c3)O[C@@H](CO)[C@@H]1O2` gave ERp5 inh 3.6, FGF22 binding -0.1, Yeast UUG start-1 54.5*, SIRT5 block -1.3, S100A4 inh HTS 3.6 and Yeast UUG start-2 inactive.
CN(C)C(=O)C[C@@H]1C[C@H]2c3cc(NC(=O)Nc4ccccc4F)ccc3O[C@H]2[C@H](CO)O1 was read as ERp5 inh 0.6, FGF22 binding -0.4, Yeast UUG start-1 47.2*, SIRT5 block -1.9, S100A4 inh HTS -15.5 and Yeast UUG start-2 inactive.
CN(C)C(=O)C[C@@H]1C[C@@H]2c3cc(NC(=O)Nc4ccccc4F)ccc3O[C@@H]2[C@@H](CO)O1 was read as ERp5 inh -0.9, FGF22 binding -0.1, Yeast UUG start-1 126.9*, SIRT5 block -0.1, S100A4 inh HTS -33.1 and Yeast UUG start-2 inactive.
COc1ccc2c3c(n(C)c2c1)[C@@H](CO)N(C(=O)c1cccc(F)c1)CC31CCN(C(=O)c2cccc(F)c2)CC1 was read as ERp5 inh -7.1, FGF22 binding 0.0 and S100A4 inh HTS 6.1.
Screening Cc1ccc(S(=O)(=O)N(C)C[C@@H]2OCCCC[C@@H](C)Oc3ccc(NS(C)(=O)=O)cc3C(=O)N([C@@H](C)CO)C[C@H]2C)cc1 returned ERp5 inh -0.8, FGF22 binding 0.0, Yeast UUG start-1 14.4, SIRT5 block 2.5 and S100A4 inh HTS 0.5.
`O=C(Nc1ccc2c(c1)[C@H]1C[C@@H](CC(=O)N3CCCCC3)O[C@H](CO)[C@H]1O2)NC1CCCCC1` gave ERp5 inh 2.0, FGF22 binding 0.5, SIRT5 block 2.3 and S100A4 inh HTS -6.4.
Screening COc1ccc2c3c(n(C)c2c1)[C@H](CO)NCC31CN(Cc2cc(-c3ccccc3)on2)C1 returned ERp5 inh -2.0, FGF22 binding -0.1 and S100A4 inh HTS -18.8.

Among those listed so far, two have nitrogen in an aromatic ring:
COc1ccc2c3c(n(C)c2c1)[C@@H](CO)N(C(=O)c1cccc(F)c1)CC31CCN(C(=O)c2cccc(F)c2)CC1 was read as ERp5 inh -7.1, FGF22 binding 0.0 and S100A4 inh HTS 6.1.
Screening COc1ccc2c3c(n(C)c2c1)[C@H](CO)NCC31CN(Cc2cc(-c3ccccc3)on2)C1 returned ERp5 inh -2.0, FGF22 binding -0.1 and S100A4 inh HTS -18.8.

More records:
For O=C(NNc1ccccc1C(F)(F)F)c1sccc1Br the results were ERp5 inh -2.9, PDI turbidity -3.8, FGF22 binding -0.1, Yeast UUG start-1 active, SIRT5 block 20.3*, S100A4 inh HTS 36.5 and Yeast UUG start-2 -4.3.
`O=C(Nc1ccccc1C(F)(F)F)c1ccsc1` gave ERp5 inh 4.8, PDI turbidity -0.4, FGF22 binding -0.2, Yeast UUG start-1 4.9, SIRT5 block -5.9 and S100A4 inh HTS 1.9.
Screening CC(C)n1c(Nc2ccccc2)nc2ccccc21 returned PDI turbidity -1.5 and Yeast UUG start-1 -20.7.
CCOc1ccccc1Nc1nc2ccccc2n1C(C)C was read as ERp5 inh -6.6, PDI turbidity 3.0, FGF22 binding 0.3, Yeast UUG start-1 -3.7, SIRT5 block -3.9, S100A4 inh HTS 7.9 and Yeast UUG start-2 3.9.
O=C(COC(=O)Cc1ccc(Cl)cc1)Nc1c(F)cccc1F was read as ERp5 inh 2.2, PDI turbidity -0.9, FGF22 binding 44.2*, Yeast UUG start-1 460.1*, SIRT5 block 8.8, S100A4 inh HTS 2.2 and Yeast UUG start-2 -4.9.
Screening Cc1cc(Cl)ccc1NC(=S)NCCC(c1ccccc1)c1ccccc1 returned PDI turbidity -6.0, Yeast UUG start-1 112.0* and Yeast UUG start-2 6.8.
`Cc1ccc(S(=O)(=O)Nc2ccc3c(c2)C(=O)N([C@H](C)CO)C[C@H](C)[C@H](CN(C)S(=O)(=O)c2ccc(C)cc2)O3)cc1` gave ERp5 inh -3.8, FGF22 binding -0.1, Yeast UUG start-1 -3.4, SIRT5 block 0.2 and S100A4 inh HTS -5.2.
CC(C)C[C@@H](CNCC(=O)[C@H](CC(=O)O)NC(=O)c1[nH]cnc1C(=O)N[C@H](CN)CC(C)C)NC(=O)c1nc[nH]c1C(=O)N[C@@H](C)C(=O)O was read as ERp5 inh -1.7, PDI turbidity -6.8, FGF22 binding 0.0, Yeast UUG start-1 137.5*, S100A4 inh HTS -3.2 and Yeast UUG start-2 1.3.
CC(C)C[C@@H](CN)NC(=O)c1nc[nH]c1C(=O)N[C@@H](Cc1c[nH]c2ccccc12)C(=O)CNC[C@H](C)NC(=O)c1nc[nH]c1C(=O)N[C@@H](C)C(=O)O was read as ERp5 inh 0.4, PDI turbidity 6.6, FGF22 binding -0.2, Yeast UUG start-1 166.5*, S100A4 inh HTS -2.4 and Yeast UUG start-2 -0.6.
For CC(C)C[C@@H](CNCC(=O)[C@H](CC(C)C)NC(=O)c1[nH]cnc1C(=O)N[C@@H](C)CN)NC(=O)c1nc[nH]c1C(=O)N[C@@H](C)C(=O)O the results were ERp5 inh 4.3, PDI turbidity 4.0, FGF22 binding -0.2, Yeast UUG start-1 135.2*, S100A4 inh HTS -0.8 and Yeast UUG start-2 14.2.
COc1cccc(S(=O)(=O)N[C@@H]2CC[C@@H](CCn3cc(-c4ccccn4)nn3)O[C@H]2CO)c1 was read as ERp5 inh -6.1, FGF22 binding -0.5, Yeast UUG start-1 -27.9, SIRT5 block 3.3 and S100A4 inh HTS 14.5.
CC(C)Nc1nc(NCCO)nc2ccccc12 was read as ERp5 inh 0.8, FGF22 binding -0.2, SIRT5 block -4.0 and S100A4 inh HTS -4.6.
`OCCNc1nc(NCc2ccccc2)c2ccccc2n1` gave ERp5 inh -0.2, PDI turbidity 9.7, FGF22 binding 0.1, Yeast UUG start-1 154.6*, SIRT5 block -6.2, S100A4 inh HTS 3.5 and Yeast UUG start-2 -2.6.
C[C@@H]1CCCCO[C@@H](CN(C)Cc2ccc3c(c2)OCO3)[C@H](C)CN([C@@H](C)CO)C(=O)c2cc(NC(=O)CCCN(C)C)ccc2O1 was read as ERp5 inh 4.1, FGF22 binding 0.0, Yeast UUG start-1 -0.2, SIRT5 block 0.5 and S100A4 inh HTS -16.0.
For C[C@H]1CCCCO[C@H](CN(C)CC2CCCCC2)[C@@H](C)CN([C@@H](C)CO)C(=O)c2cc(NC(=O)NC3CCCCC3)ccc2O1 the results were FGF22 binding 0.1 and Yeast UUG start-1 7.6.

Compound activity (PubChem BioAssay)
